Patent publication US10899758B2, “Inhibitors of the menin-MLL interaction” (Vitae Pharmaceuticals, LLC, priority 2016, dated 2021)

Chains of the proteins cited; added tags and fusions are not shown. Lines headed by an entry give the natural chain unless they say otherwise; changes in a name come on top. Residues count along the entry.
UniProt O00255, 1-459 limits assumed, stated change not applied: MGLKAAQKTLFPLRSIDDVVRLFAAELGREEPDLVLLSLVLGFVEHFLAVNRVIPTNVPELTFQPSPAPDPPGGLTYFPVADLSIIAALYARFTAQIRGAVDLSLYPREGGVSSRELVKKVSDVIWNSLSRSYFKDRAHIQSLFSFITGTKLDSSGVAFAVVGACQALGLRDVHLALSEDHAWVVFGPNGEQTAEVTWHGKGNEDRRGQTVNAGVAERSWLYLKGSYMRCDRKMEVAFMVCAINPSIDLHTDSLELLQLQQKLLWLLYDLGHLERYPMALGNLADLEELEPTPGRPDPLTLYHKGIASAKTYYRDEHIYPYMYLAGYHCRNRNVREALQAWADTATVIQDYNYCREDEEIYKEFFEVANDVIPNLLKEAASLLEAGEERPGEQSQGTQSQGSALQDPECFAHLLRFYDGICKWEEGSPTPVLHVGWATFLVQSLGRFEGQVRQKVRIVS

Key:
[1] = molecular target: menin/MLL binding (biotinylated wild-type or mutated menin and MLL-AF9 fusion protein) (Homo sapiens, UniProt O00255); assay: Assay 1 (Binding Assay): AlphaLISA menin/MLL binding; details: read-out: Assay 1 (IC50, menin/MLL binding), 5 nM biotinylated menin, MLL-AF9-FLAG lysate
Description: Potencies of inhibitor compounds against menin/MLL binding were assessed by AlphaLISA assay using biotinylated (1) wild-type menin or (2) mutated menin (described in Nature (2012) Vol. 482, pp. 542-548) and MLL-AF9 fusion protein bearing a FLAG epitope at its C-terminus. Menin proteins were expressed in E. coli and covalently modified with biotin using EZ-Link™ Sulfo-NHS-Biotin (ThermoFisher Cat. No. 21217) according to manufacturer's protocol. MLL1-1,396 fused to AF91-92 and the C-terminal FLAG peptide was expressed in HEK293 cells and used as a lysate cleared at 21,000×g for 10 min.
Compounds (2 μL of solutions in DMSO) were dispensed in white 96-well half-area plates (Corning Cat. No. 3693) and incubated for 30 min at RT with 5 nM biotinylated menin and appropriate amount of MLL-AF9-FLAG lysate in 40 μL of 50 mM Tris-HCl buffer pH 7.4 containing 5% (v/v) DMSO, 50 mM NaCl, 0.01% (w/v) bovine serum albumin (BSA) and 1 mM DTT. To this incubation mixture, 40 μl of AlphaLISA anti-FLAG acceptor (PerkinElmer Cat. No. AL112C) and streptavidin donor (PerkinElmer Cat. No. 6760002) beads (10 μg/mL each) was added and incubation continued at RT for 60 min. Alpha (amplified luminescent proximity homogeneous assay) signal was measured on an Envision multi-label plate reader at the end of the incubation. All steps were conducted under dim fluorescent light. […]

[2] = tested on: human acute monocytic leukemia cell line MV-4-11; assay: Assay 2 (Cell Proliferation Assay), ATP quantitation (CellTiter-Glo); assay type: cell-based; details: read-out: Assay 2 (EC50, inhibition of cell proliferation); MV-4-11 cells, 72 h
Description: Potencies of inhibitor compounds against cell proliferation was assessed against the human acute monocytic leukemia cell line MV-4-11 (ATCC® CRL-9591™) based on ATP quantitation. MV-4-11 cells or toxicity control HL-60 cells (ATCC® CCL-240™) were incubated in 96-well tissue culture plates (1.67×10^4 cells in 200 μL culture media containing 10% FBS per well) with or without test compound for 72 h at 37° C., 5% CO2. After incubation, each well was mixed by pipetting and 95 μL from each well was transferred to a well in 96-well black OptiPlate® plates (PerkinElmer). An equal volume of CellTiter-Glo® Luminescent Cell Viability Assay reagent (Promega) was added to each well, followed by mixing for 5 min on an orbital plate shaker. Luminescence was measured on a Wallac EnVision 2104 Multilabel Reader (PerkinElmer) to quantitate ATP. Percent inhibition of cell proliferation by test compounds was calculated based on uninhibited cell growth (DMSO) versus cells treated with a potent menin inhibitor at a concentration yielding at least 100×LD50.

SMILES | IC50 [1] [nM] | EC50 [2] [nM]
CC(C)N(C)C(=O)c1cc(F)ccc1-n1cc(C2CC3CN(C[C@H]4CC[C@H](NS(C)(=O)=O)CC4)CC3C2)c2ccncc21 (stereo partly drawn) | < 100 | 
CC(C)N(C)C(=O)c1cc(F)ccc1-n1cc(C2CCC(N3CCC(O)C3)CC2)c2ccncc21 (stereo not drawn) | < 100 | 100 to 1000
